Results taken from publication PMC3407951 (EMBO Molecular Medicine, 2012).

Tests used:
trypsin = conditions: 37°C, up to 24h
ADAM10 = experiment: 0.4 µg; conditions: human, 37°C, up to 24 h

Question: EVHHQKLVFFAEDVGSNK was tested. Which fragment found (trypsin) did it give?
Answer: Aβ11–16, 3 h; also recorded: Aβ17– 28, 3 h

Question: What about the fragment found (ADAM10) of the same sequence?
Answer: Aβ11–16, 3 h; also recorded: Aβ17–28, 3 h

Entries after “also recorded” stand apart in the source; their conditions may differ.
